Biological target: GST-VHL–EloBC complex (UniProt P40337 1-213; Q15370 1-118; Q15369 17-112)
Test: pull-down

Amino acid sequences for entries named in this document (tags omitted).
UniProt P40337, whole entry, chain 1 of 3: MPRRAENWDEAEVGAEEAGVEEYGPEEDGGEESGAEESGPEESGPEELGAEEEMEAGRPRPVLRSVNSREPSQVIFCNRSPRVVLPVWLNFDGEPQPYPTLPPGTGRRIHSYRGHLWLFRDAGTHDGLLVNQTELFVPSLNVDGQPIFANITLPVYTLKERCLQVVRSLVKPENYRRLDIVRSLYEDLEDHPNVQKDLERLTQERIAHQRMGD

- binding result: binds
B1: 6xHis-MBP-Cul2 (residues 1-277) (domain or fragment)
chain: MSLKPRVVDFDETWNKLLTTIKAVVMLEYVERATWNDRFSDIYALCVAYPEPLGERLYTETKIFLENHVRHLHKRVLESEEQVLVMYHRYWEEYSKGADYMDCLYRYLNTQFIKKNKLTEADLQYGYGGVDMNEPLMEIGELALDMWRKLMVEPLQAILIRMLLREIKNDRGGEDPNQKVIHGVINSFVHVEQYKKKFPLKFYQEIFESPFLTETGEYYKQEASNLLQESNCSQYMEKVLGRLKDEEIRCRKYLHPSSYTKVIHECQQRMVADHLQF

— publication PMC4351159 (Structure (London, England : 1993), 2015)
